How the values were obtained:
[1] = target: T1, peroxisome proliferator-activated receptor beta/delta (sPPARD), wild-type (Sus scrofa, UniProt A9XAM2); test: biochemical
T1 construct: gene PPARD

The chains behind the UniProt entries cited, without tags or fusion partners. Residues count along the entry.
UniProt A9XAM2, 1-441: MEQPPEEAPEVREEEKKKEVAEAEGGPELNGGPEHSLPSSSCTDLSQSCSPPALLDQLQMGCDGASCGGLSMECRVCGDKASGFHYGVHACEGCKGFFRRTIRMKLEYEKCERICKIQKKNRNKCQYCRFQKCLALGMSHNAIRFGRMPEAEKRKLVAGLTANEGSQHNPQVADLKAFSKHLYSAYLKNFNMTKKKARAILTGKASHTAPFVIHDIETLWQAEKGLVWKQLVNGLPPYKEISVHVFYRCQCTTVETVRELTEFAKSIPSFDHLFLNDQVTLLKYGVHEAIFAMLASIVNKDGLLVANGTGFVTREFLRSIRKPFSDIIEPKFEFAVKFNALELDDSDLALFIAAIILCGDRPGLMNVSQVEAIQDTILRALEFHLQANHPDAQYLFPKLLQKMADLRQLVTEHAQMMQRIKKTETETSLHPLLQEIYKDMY
UniProt A9XAM2, 1-441 G32E: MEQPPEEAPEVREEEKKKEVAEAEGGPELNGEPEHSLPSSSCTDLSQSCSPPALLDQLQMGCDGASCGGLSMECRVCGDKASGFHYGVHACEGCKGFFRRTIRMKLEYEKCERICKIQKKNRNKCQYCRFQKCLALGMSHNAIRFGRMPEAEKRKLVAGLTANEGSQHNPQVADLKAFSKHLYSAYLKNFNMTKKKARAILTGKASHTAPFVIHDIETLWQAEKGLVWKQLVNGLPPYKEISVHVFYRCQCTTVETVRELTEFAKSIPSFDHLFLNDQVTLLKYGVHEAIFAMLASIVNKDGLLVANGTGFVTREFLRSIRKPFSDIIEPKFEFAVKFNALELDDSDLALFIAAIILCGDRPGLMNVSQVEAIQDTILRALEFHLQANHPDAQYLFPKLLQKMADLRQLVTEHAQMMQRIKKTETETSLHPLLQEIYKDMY

[2] = target: T2, peroxisome proliferator-activated receptor beta/delta (sPPARD), G32E mutant (Sus scrofa, UniProt A9XAM2, G32E); test: biochemical
T2 construct: gene PPARD

`Cc1cc(SCc2sc(-c3ccc(C(F)(F)F)c(F)c3)nc2C)ccc1OCC(=O)O` [GW0742] was tested, and the Kd [1] was 44.9 nM and the Kd [2] was 97.9 nM.
